The text below walks through data of US4239708A, “P-Phenylene bis[imino(thiocarbonyl)] diphosphoramidic acid esters as anthelmentic agents” (dated 1980).

Each structure is given as a SMILES string. A value given as a limit tells only on which side of the number the result lay.

As a reminder, the LD50 is the dose at which mortality reaches 50%.

This series has as its system Mice. As to the kind of experiment: LD50 comparison in mice. Conditions: single oral or parenteral dose, 14-day observation.
`CCOP(=O)(NC(=S)Nc1ccc(NC(=S)NP(=O)(OCC)OCC)c(OC)c1)OCC`: the LD50 came out at 85 mg/kg.

For the molecule `CCOP(=O)(NC(=S)Nc1ccc(Cl)cc1NC(=S)NP(=O)(OCC)OCC)OCC`, the LD50 is reported as 30 mg/kg.

For `CCOP(=O)(NC(=S)Nc1ccc(NC(=S)NP(=O)(OCC)OCC)cc1)OCC`, the LD50 is over 240 mg/kg.

For the molecule `CCOP(=O)(NC(=S)Nc1ccc(OC)cc1NC(=S)NP(=O)(OCC)OCC)OCC`, the LD50 came to 52 mg/kg.

Consider `CCOP(=O)(NC(=S)Nc1ccccc1NC(=S)NP(=O)(OCC)OCC)OCC`, for which the LD50 is 52 mg/kg.

On to `CCOP(=O)(NC(=S)Nc1ccc(NC(=S)NP(=O)(OCC)OCC)c(Cl)c1)OCC`, for which the LD50 turned out to be 68 mg/kg.
